# Results from PubChem BioAssay AID1236 (Emory University Molecular Libraries Screening Center, 2008).
# Only a part is listed here, and it is no random draw. Some of these compounds have results that are not shown, active ones among them. Activity calls are given as the source filed them.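 The calls were made as follows: active = inhibition above about 50% (limit read from the data); inactive = the rest.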
# Test system: calpain II (m-calpain), Sus scrofa
# Test: m-calpain protease activity blockers – biochemical, fluorogenic peptide substrate, 1536-well, primary screen (AID 1236)
# Settings: purified calpain II, 30 min, at 16 µM, active compounds read high
row,SMILES,inhibition
1,O=C(NCC1(N2CCCCC2)CCCCC1)c1cc([N+](=O)[O-])ccc1Cl,inactive: 27.1%
2,CCN(CC)CC(C)C(C)OC(=O)C(O)(c1ccccc1)c1ccccc1 (stereo unspecified),inactive: 2.11%
3,CC(C)N1C(=O)CC2(CCN(CCOC(=O)C(O)(c3ccccc3)c3ccccc3)CC2)C1=O,inactive: -10.4%
4,Cc1ccccc1C(=O)NCC1(N2CCCCC2)CCCCC1,inactive: 12.1%
5,CN(C)C1CCCC1OC(=O)C(O)(c1ccccc1)c1ccccc1 (stereo unspecified),inactive: -5.74%
6,CCN1CCCC(OC(=O)C2(O)c3ccccc3C=Cc3ccccc32)C1 (stereo unspecified),inactive: -4.12%
7,C=CCN1CCN(CCOC(=O)C(O)(c2ccccc2)c2ccccc2)CC1,inactive: -2.3%
8,COc1cccc(C(=O)NCC2(N3CCCCC3)CCCCC2)c1,inactive: -3.36%
9,O=C(OC1CN2CCC1CC2)C(CO)(c1ccccc1)c1ccccc1 (stereo unspecified),inactive: -29.2%
10,CN(C)c1cccc(C(=O)NCC2(N(C)C)CCCCC2)c1,inactive: -41%
11,COc1ccc(Br)c(C(=O)NCC2(N3CCCCC3)CCCCC2)c1,inactive: 15.6%
